Marks after values point to notes of the source that are not given here.
Tests used:
P-gp = conditions: rat
[1] = cited from earlier work
[2] = Multi-compartmental brain PK model fitted to rat plasma and microdialysis (brainECF, CSF) data; conditions: parameter estimate (RSE, %)

Q: For `Cc1nc2n(c(=O)c1CCN1CCC(c3noc4cc(F)ccc34)CC1)CCCC2` [Risperidone], which “increase of QPL_ECF in the presence of P-gp inhibitors” value (P-gp) is on record?
A: 124%

Q: What about the “Impact of active transport on QPL_ECF (covariate effect of inhibitor)” value (P-gp; with GF120918 or tariquidar, estimate (RSE, %)) of the same compound?
A: 1.24 (16.3)^b

Q: What about the “pKa (Base)” value [1] of the same compound?
A: 8.8

Q: What about the “QDIFF, drug dispersion rate in brain and CSF” value [2] of the same compound?
A: 0.0254 (15.0) mL/min

Q: What about the “VPL, distribution volume of the central compartment” value [2] of the same compound?
A: 60000 (13.0) mL

From PMC5236087, “A Generic Multi-Compartmental CNS Distribution Model Structure for 9 Drugs Allows Prediction of Human Brain Target Site Concentrations” (Pharmaceutical Research, 2016)
